From patent US10975049B2, “Nicotinyl alcohol ether derivative, preparation method therefor, and pharmaceutical composition and uses thereof” (Institute of Materia Medica, Chinese Academy of Medical …, priority 2016, dated 2021)

Tested on: mouse colon cancer MC38
Assay: Subcutaneous xenograft model of mouse colon cancer MC38
Type: in vivo, C57BL/6 or Bablc mice
Protocol: The method in subcutaneous xenograft tumor was as follows. The cultured specific tumor cells were digested and collected by centrifugation, and washed with sterile physiological saline for two times and then counted. The cell concentration was adjusted to 5×10^6/ml by physiological saline, and 0.2 ml of cell suspension was inoculated to the right armpit of C57BL/6 or Bablc mice. After inoculation, the animals were randomly divided into two groups in next day. Each group had 6-7 mice. After weighing, the animals were dosed once each day to monitor tumor size. When the tumor size reached to a certain size, the mice was weighed and blood was collected from mice orbit and then the mice were killed by removing the neck. The tumor tissue, thymus tissue and spleen tissue were collected and weighed respectively. Finally, the tumor growth inhibition rate was calculated, and the tumor growth inhibition rate was used to evaluate the level of anti-tumor effect.

Q: Which results are given for `O=C(O)[C@H](CO)NCc1cc(Cl)c(OCc2cccc(-c3ccccc3)c2Br)cc1OCc1cccnc1` [Example 4, (S)—N-(4-(2-bromo-3-phenylbenzyloxy)-5-chloro-2-(pyridin-3-yl-methyleneoxy)benzyl) serine]?
A: Body weight (g) Mean ± SD Begin (5 mg/kg): 18.2 ± 0.3 g; Body weight (g) Mean ± SD Begin (10 mg/kg): 18.2 ± 0.3 g; Body weight (g) Mean ± SD Begin (20 mg/kg): 18.2 ± 0.4 g
